{
  "source": "patent US11008620B2",
  "about": "“Methods for treating cancer resistant to ErbB therapeutics” (Dana-Farber Cancer Institute, Inc., priority 2007, dated 2021)",
  "format_in_all_cases": "cell-based",
  "key": {"HCC827 cell line": {"tested_on": "HCC827 cell line", "experiment": "phospho-receptor tyrosine kinase (RTK) array, HCC827", "details": "1 μM gefitinib"}, "[1]": {"tested_on": "ERBB3 and Gab1 association with p85 in HCC827 GR cells", "experiment": "anti-p85 immunoprecipitation in HCC827 GR cells", "details": "1 μM each drug, 6 hours (FIG. 2C)"}, "HCC827 GR5 cells": {"tested_on": "HCC827 GR5 cells", "experiment": "phospho-receptor tyrosine kinase (RTK) array, HCC827 GR5", "details": "HCC827 GR cells; 1 μM gefitinib"}, "[2]": {"tested_on": "ERBB3 and Gab1 association with p85 in HCC827 cell line", "experiment": "anti-p85 immunoprecipitation in parental HCC827 cell line", "details": "1 μM gefitinib, 6 hours (FIG. 2C)"}, "HCC827 parental cells": {"tested_on": "HCC827 parental cells", "experiment": "apoptosis by cleaved PARP immunoblot, parental HCC827 cells", "details": "parental HCC827 cells (FIG. 7)"}},
  "note": "Entries after “also recorded” stand apart in the source; their conditions may differ.",
  "data": [
    {"molecule": "COc1cc2ncnc(Nc3ccc(F)c(Cl)c3)c2cc1OCCCN1CCOCC1", "note": "[gefitinib]", "values": [
      {"measurement": "phosphorylation of EGFR, ERBB3, ERBB2 and MET (RTK array)", "setting": "HCC827 cell line", "value": "completely or markedly reduced"},
      {"measurement": "co-precipitation of ERBB3 and Gab1 with p85", "setting": "[1]", "value": "still co-precipitated with p85"},
      {"measurement": "phosphorylation of MET, ERBB3 and EGFR (RTK array)", "setting": "HCC827 GR5 cells", "value": "marked phosphorylation of MET and persistent phosphorylation of ERBB3 and EGFR"},
      {"measurement": "co-precipitation of ERBB3 and Gab1 with p85", "setting": "[2]", "value": "Both interactions were disrupted; also recorded: abrogated"},
      {"measurement": "apoptosis (cleaved PARP)", "setting": "HCC827 parental cells", "value": "sufficient to induce apoptosis"}
    ]}
  ]
}
